# Patent US20090099157A1, “TETRAHYDRO-PYRAZOLO-PYRIDINE THIOETHER MODULATORS OF CATHEPSIN S” (priority 2007, published 2009)
# Sequences of proteins named here, by UniProt entry; tags and fusion partners are left off. Residues count along the entry.
# UniProt P25774, 115-331: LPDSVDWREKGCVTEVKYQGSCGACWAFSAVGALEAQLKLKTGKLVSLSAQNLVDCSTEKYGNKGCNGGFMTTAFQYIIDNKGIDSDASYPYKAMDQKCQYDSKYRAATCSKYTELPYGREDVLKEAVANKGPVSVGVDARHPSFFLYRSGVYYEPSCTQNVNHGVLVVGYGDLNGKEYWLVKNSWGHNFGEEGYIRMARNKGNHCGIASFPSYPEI
# Biological target: Recombinant human cathepsin S (CatS) (Homo sapiens, UniProt P25774)
# Test: biochemical
row,SMILES,IC50 [nM]
1,"CS(=O)(=O)N1CCc2c(c(-c3ccc(C(F)(F)F)c(SCCN4CCC(F)CC4)c3)nn2C[C@@H](O)CN2CCCC(F)C2)C1 (stereo partly drawn) [Example 500, (2S)-1-(3-Fluoropiperidin-1-yl)-3-{3-[3-{[2-(4-fluoropiperidin-1-yl)ethyl]sulfanyl}-4-(trifluoromethyl)phenyl]-5-(methylsulfonyl)-4,5,6,7-tetrahydro-1H-pyrazolo[4,3-c]pyridin-1-yl}propan-2-ol]",250
2,"CS(=O)(=O)NC1CCN(CC(O)Cn2nc(-c3ccc(C(F)(F)F)c(SCCN4CCCCC4)c3)c3c2CCNC3)CC1 (stereo not shown) [Example 381, N-{1-[2-Hydroxy-3-(3-{3-[(2-piperidin-1-ylethyl)sulfanyl]-4-(trifluoromethyl)phenyl}-4,5,6,7-tetrahydro-1H-pyrazolo[4,3-c]pyridin-1-yl)propyl]piperidin-4-yl}methanesulfonamide]",3850
3,"CS(=O)(=O)N1CCc2c(c(-c3ccc(C(F)(F)F)c(SCCN4CCOCC4)c3)nn2CC(O)CN2CCC(N3CCCC3=O)CC2)C1 (stereo not shown) [Example 181, 1-(1-{2-Hydroxy-3-[5-(methylsulfonyl)-3-{3-[(2-morpholin-4-ylethyl)sulfanyl]-4-(trifluoromethyl)phenyl}-4,5,6,7-tetrahydro-1H-pyrazolo[4,3-c]pyridin-1-yl]propyl}piperidin-4-yl)pyrrolidin-2-one]",110
4,"COC(=O)C(=O)N1CCc2c(c(-c3ccc(C(F)(F)F)c(SCCN4CCC(F)CC4)c3)nn2CC(O)CN2CCCCC2)C1 (stereo not shown) [Example 435, Methyl {3-[3-{[2-(4-fluoropiperidin-1-yl)ethyl]sulfanyl}-4-(trifluoromethyl)phenyl]-1-(2-hydroxy-3-piperidin-1-ylpropyl)-1,4,6,7-tetrahydro-5H-pyrazolo[4,3-c]pyridin-5-yl}(oxo)acetate]",65
5,"CS(=O)(=O)N1CCc2c(c(-c3ccc(C(F)(F)F)c(SCCN4CCCC4)c3)nn2CC(O)CN2CCC(C(=O)N3CCOCC3)CC2)C1 (stereo not shown) [Example 753, 1-[5-(Methylsulfonyl)-3-{3-[(2-pyrrolidin-1-ylethyl)sulfanyl]-4-(trifluoromethyl)phenyl}-4,5,6,7-tetrahydro-1H-pyrazolo[4,3-c]pyridin-1-yl]-3-[4-(morpholin-4-ylcarbonyl)piperidin-1-yl]propan-2-ol]",390
6,"CS(=O)(=O)N1CCc2c(c(-c3ccc(C(F)(F)F)c(SCCN4CC[C@H](F)C4)c3)nn2C[C@@H](O)CN2CCC(C(N)=O)CC2)C1 [Example 565, 1-[(2S)-3-{3-[3-({2-[(3S)-3-Fluoropyrrolidin-1-yl]ethyl}sulfanyl)-4-(trifluoromethyl)phenyl]-5-(methylsulfonyl)-4,5,6,7-tetrahydro-1H-pyrazolo[4,3-c]pyridin-1-yl}-2-hydroxypropyl]piperidine-4-carboxamide]",1160
7,"CS(=O)(=O)N1CCc2c(c(-c3ccc(C(F)(F)F)c(SCCN4CCOCC4)c3)nn2CC(O)CN2CCC(N3CCCC3)CC2)C1 (stereo not shown) [Example 644, 1-[5-(Methylsulfonyl)-3-{3-[(2-morpholin-4-ylethyl)sulfanyl]-4-(trifluoromethyl)phenyl}-4,5,6,7-tetrahydro-1H-pyrazolo[4,3-c]pyridin-1-yl]-3-(4-pyrrolidin-1-ylpiperidin-1-yl)propan-2-ol]",630
8,"CCOC(=O)NC1CCN(C(=O)CSc2cc(-c3nn(CCCN4CCC(N5CCCC5=O)CC4)c4c3CN(S(C)(=O)=O)CC4)ccc2C(F)(F)F)CC1 [Example 888, Ethyl {1-[({5-[5-(methylsulfonyl)-1-{3-[4-(2-oxopyrrolidin-1-yl)piperidin-1-yl]propyl}-4,5,6,7-tetrahydro-1H-pyrazolo[4,3-c]pyridin-3-yl]-2-(trifluoromethyl)phenyl}sulfanyl)acetyl]piperidin-4-yl}carbamate]",60
9,"CS(=O)(=O)N1CCc2c(c(-c3ccc(C(F)(F)F)c(SCCN4CCC(F)CC4)c3)nn2C[C@@H](O)CN2CCCCC2c2cccnc2)C1 (stereo partly drawn) [Example 735, (2S)-1-{3-[3-{[2-(4-Fluoropiperidin-1-yl)ethyl]sulfanyl}-4-(trifluoromethyl)phenyl]-5-(methylsulfonyl)-4,5,6,7-tetrahydro-1H-pyrazolo[4,3-c]pyridin-1-yl}-3-(2-pyridin-3-ylpiperidin-1-yl)propan-2-ol]",7140
10,"CS(=O)(=O)N1CCc2c(c(-c3ccc(C(F)(F)F)c(SCCN4CCCCC4)c3)nn2CC(O)CN2CCC(O)(c3ccccn3)CC2)C1 (stereo not shown) [Example 708, 1-{2-Hydroxy-3-[5-(methylsulfonyl)-3-{3-[(2-piperidin-1-ylethyl)sulfanyl]-4-(trifluoromethyl)phenyl}-4,5,6,7-tetrahydro-1H-pyrazolo[4,3-c]pyridin-1-yl]propyl}-4-pyridin-2-ylpiperidin-4-ol]",55
11,"CS(=O)(=O)N1CCc2c(c(-c3ccc(C(F)(F)F)c(SCC(=O)N4CCOCC4)c3)nn2CC(O)CN2CC[C@H](O)C2)C1 (stereo partly drawn) [Example 407, (3S)-1-{2-Hydroxy-3-[5-(methylsulfonyl)-3-{3-[(2-morpholin-4-yl-2-oxoethyl)sulfanyl]-4-(trifluoromethyl)phenyl}-4,5,6,7-tetrahydro-1H-pyrazolo[4,3-c]pyridin-1-yl]propyl}pyrrolidin-3-ol]",240
12,"CS(=O)(=O)NC1CCN(CC(O)Cn2nc(-c3ccc(C(F)(F)F)c(SCCN4CCC(F)(F)C4)c3)c3c2CCNC3)CC1 (stereo not shown) [Example 505, N-[1-(3-{3-[3-{[2-(3,3-Difluoropyrrolidin-1-yl)ethyl]sulfanyl}-4-(trifluoromethyl)phenyl]-4,5,6,7-tetrahydro-1H-pyrazolo[4,3-c]pyridin-1-yl}-2-hydroxypropyl)piperidin-4-yl]methanesulfonamide]",1820
13,"CS(=O)(=O)N1CCc2c(c(-c3ccc(C(F)(F)F)c(SCC(=O)N4CCOCC4)c3)nn2CC(O)CN2CC[C@H](CO)C2)C1 (stereo partly drawn) [Example 465, 1-[(3S)-3-(Hydroxymethyl)pyrrolidin-1-yl]-3-[5-(methylsulfonyl)-3-{3-[(2-morpholin-4-yl-2-oxoethyl)sulfanyl]-4-(trifluoromethyl)phenyl}-4,5,6,7-tetrahydro-1H-pyrazolo[4,3-c]pyridin-1-yl]propan-2-ol]",810
14,"CC(=O)NC1CCN(CC(O)Cn2nc(-c3ccc(C(F)(F)F)c(SCCN4CCCC4)c3)c3c2CCN(S(C)(=O)=O)C3)C1 (stereo not shown) [Example 450, N-(1-{2-Hydroxy-3-[5-(methylsulfonyl)-3-{3-[(2-pyrrolidin-1-ylethyl)sulfanyl]-4-(trifluoromethyl)phenyl}-4,5,6,7-tetrahydro-1H-pyrazolo[4,3-c]pyridin-1-yl]propyl}pyrrolidin-3-yl)acetamide]",940
15,"OC(CN1CCCCC1)Cn1nc(-c2ccc(C(F)(F)F)c(SCCN3CCOCC3)c2)c2c1CCNC2 (stereo not shown) [Example 291, 1-(3-{3-[(2-Morpholin-4-ylethyl)sulfanyl]-4-(trifluoromethyl)phenyl}-4,5,6,7-tetrahydro-1H-pyrazolo[4,3-c]pyridin-1-yl)-3-piperidin-1-ylpropan-2-ol]",> 20000
16,"CS(=O)(=O)N1CCc2c(c(-c3ccc(C(F)(F)F)c(SCCN4CCCC(F)(F)C4)c3)nn2C[C@@H](O)CN2CC3CCCC3C2)C1 (stereo partly drawn) [Example 618, (2S)-1-{3-[3-{[2-(3,3-Difluoropiperidin-1-yl)ethyl]sulfanyl}-4-(trifluoromethyl)phenyl]-5-(methylsulfonyl)-4,5,6,7-tetrahydro-1H-pyrazolo[4,3-c]pyridin-1-yl}-3-(hexahydrocyclopenta[c]pyrrol-2(1H)-yl)propan-2-ol]",130
17,"OC(CN1CCC(c2cccc(Cl)c2)CC1)Cn1nc(-c2ccc(C(F)(F)F)c(SCCN3CCCCC3)c2)c2c1CCNC2 (stereo not shown) [Example 468, 1-[4-(3-Chlorophenyl)piperidin-1-yl]-3-(3-{3-[(2-piperidin-1-ylethyl)sulfanyl]-4-(trifluoromethyl)phenyl}-4,5,6,7-tetrahydro-1H-pyrazolo[4,3-c]pyridin-1-yl)propan-2-ol]",130
18,"CS(=O)(=O)N1CCc2c(c(-c3ccc(C(F)(F)F)c(SCCN4CCC(Cc5ccccc5)CC4)c3)nn2CCCN2CCC(N3CCCC3=O)CC2)C1 [Example 876, 1-[1-(3-{5-(Methylsulfonyl)-3-[3-({2-[4-(phenylmethyl)piperidin-1-yl]ethyl}sulfanyl)-4-(trifluoromethyl)phenyl]-4,5,6,7-tetrahydro-1H-pyrazolo[4,3-c]pyridin-1-yl}propyl)piperidin-4-yl]pyrrolidin-2-one]",340
19,"CCS(=O)(=O)N1CCc2c(c(-c3ccc(C(F)(F)F)c(SCCN4CCCCC4)c3)nn2CC(O)CN2CCCCC2)C1 (stereo not shown) [Example 236, 1-[5-(Ethylsulfonyl)-3-{3-[(2-piperidin-1-ylethyl)sulfanyl]-4-(trifluoromethyl)phenyl}-4,5,6,7-tetrahydro-1H-pyrazolo[4,3-c]pyridin-1-yl]-3-piperidin-1-ylpropan-2-ol]",330
20,"CS(=O)(=O)N1CCc2c(c(-c3ccc(C(F)(F)F)c(SCCN4CCC(N5CCCC5)CC4)c3)nn2CC(O)CN2CCC(c3nnnn3Cc3ccccc3)CC2)C1 (stereo not shown) [Example 896, 1-{5-(Methylsulfonyl)-3-[3-{[2-(4-pyrrolidin-1-ylpiperidin-1-yl)ethyl]sulfanyl}-4-(trifluoromethyl)phenyl]-4,5,6,7-tetrahydro-1H-pyrazolo[4,3-c]pyridin-1-yl}-3-{4-[1-(phenylmethyl)-1H-tetrazol-5-yl]piperidin-1-yl}propan-2-ol]",420
21,"CS(=O)(=O)N1CCc2c(c(-c3ccc(C(F)(F)F)c(SCCNS(=O)(=O)C(F)(F)F)c3)nn2CC(O)CN2CCC(N3CCCC3=O)CC2)C1 (stereo not shown) [Example 867, 1,1,1-Trifluoro-N-[2-({5-[1-{2-hydroxy-3-[4-(2-oxopyrrolidin-1-yl)piperidin-1-yl]propyl}-5-(methylsulfonyl)-4,5,6,7-tetrahydro-1H-pyrazolo[4,3-c]pyridin-3-yl]-2-(trifluoromethyl)phenyl}sulfanyl)ethyl]methanesulfonamide]",45
22,"CS(=O)(=O)NCCSc1cc(-c2nn(CC(O)CN3CCCCC3)c3c2CN(S(C)(=O)=O)CC3)ccc1C(F)(F)F (stereo not shown) [Example 366, N-[2-({5-[1-(2-Hydroxy-3-piperidin-1-ylpropyl)-5-(methylsulfonyl)-4,5,6,7-tetrahydro-1H-pyrazolo[4,3-c]pyridin-3-yl]-2-(trifluoromethyl)phenyl}sulfanyl)ethyl]methanesulfonamide]",550
